The assay deals with EMT6 mouse mammary tumor cells. As to the kind of experiment: Cytotoxicity against EMT6 cells in culture (MTT).

pIC50: −log10 of the molar value. Like-named read-outs stand apart in the source and are kept apart here.

Consider `Cc1ccnc(SSCCCl)n1`, for which the pIC50 is 4.14 (read-out: Disulfide Cytotoxicity (IC50), Table 5, 48 h exposure, MTT) and 4.14 (read-out: Toxicity / Cytotoxicity, Table 3).

Values taken from patent US6552060B1, “Asymmetric disulfides and methods of using same” (Prolx Pharmaceuticals, Inc., priority 1997, dated 2003).
